From ChEMBL document CHEMBL2440012, “Design, synthesis and anticonvulsant properties of new N-Mannich bases derived from 3-phenylpyrrolidine-2,5-diones” (Bioorg Med Chem, 2013)

System: Mus musculus
Assay: Protection index, ratio of TD50 for neurotoxicity in ip dosed albino CF1 mouse by rotorod test to ED50 for anticonvulsant activity in ip dosed albino CF1 mouse by 6 Hz psychomotor seizure test
Type: functional

Which “Ratio TD50/ED50” value does the source give for CC[C@@H](C(N)=O)N1CCCC1=O here?
Its value is greater than 25.77.
